Source: ChEMBL document CHEMBL1123005, “1-Azacycloalkyl-1,4-benzodiazepin-2-ones with antianxiety-antidepressant actions” (J Med Chem, 1985)

Chains of the proteins cited; added tags and fusions are not shown. Lines headed by an entry give the natural chain unless they say otherwise; changes in a name come on top.
UniProt O09028: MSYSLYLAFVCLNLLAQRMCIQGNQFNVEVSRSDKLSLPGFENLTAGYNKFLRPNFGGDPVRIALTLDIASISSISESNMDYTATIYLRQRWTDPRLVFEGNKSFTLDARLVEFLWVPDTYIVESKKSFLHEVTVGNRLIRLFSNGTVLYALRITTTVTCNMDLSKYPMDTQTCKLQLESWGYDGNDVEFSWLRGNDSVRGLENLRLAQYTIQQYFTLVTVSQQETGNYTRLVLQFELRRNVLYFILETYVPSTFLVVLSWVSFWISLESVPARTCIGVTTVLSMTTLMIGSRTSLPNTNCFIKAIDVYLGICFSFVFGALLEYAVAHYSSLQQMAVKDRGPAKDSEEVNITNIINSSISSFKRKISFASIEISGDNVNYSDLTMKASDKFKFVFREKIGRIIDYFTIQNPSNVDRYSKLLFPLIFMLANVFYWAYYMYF
UniProt P15431: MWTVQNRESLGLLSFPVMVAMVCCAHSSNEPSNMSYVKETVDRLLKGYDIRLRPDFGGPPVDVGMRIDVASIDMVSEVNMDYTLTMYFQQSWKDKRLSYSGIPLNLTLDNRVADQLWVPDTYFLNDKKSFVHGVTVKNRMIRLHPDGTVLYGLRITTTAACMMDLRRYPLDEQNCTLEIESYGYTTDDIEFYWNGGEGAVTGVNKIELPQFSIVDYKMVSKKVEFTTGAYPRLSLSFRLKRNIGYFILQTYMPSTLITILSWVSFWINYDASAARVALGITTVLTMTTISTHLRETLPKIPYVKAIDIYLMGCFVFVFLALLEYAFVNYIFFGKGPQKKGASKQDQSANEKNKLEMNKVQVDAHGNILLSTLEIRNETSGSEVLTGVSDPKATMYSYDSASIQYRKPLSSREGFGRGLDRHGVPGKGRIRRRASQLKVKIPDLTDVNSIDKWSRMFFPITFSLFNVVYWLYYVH
UniProt P18506: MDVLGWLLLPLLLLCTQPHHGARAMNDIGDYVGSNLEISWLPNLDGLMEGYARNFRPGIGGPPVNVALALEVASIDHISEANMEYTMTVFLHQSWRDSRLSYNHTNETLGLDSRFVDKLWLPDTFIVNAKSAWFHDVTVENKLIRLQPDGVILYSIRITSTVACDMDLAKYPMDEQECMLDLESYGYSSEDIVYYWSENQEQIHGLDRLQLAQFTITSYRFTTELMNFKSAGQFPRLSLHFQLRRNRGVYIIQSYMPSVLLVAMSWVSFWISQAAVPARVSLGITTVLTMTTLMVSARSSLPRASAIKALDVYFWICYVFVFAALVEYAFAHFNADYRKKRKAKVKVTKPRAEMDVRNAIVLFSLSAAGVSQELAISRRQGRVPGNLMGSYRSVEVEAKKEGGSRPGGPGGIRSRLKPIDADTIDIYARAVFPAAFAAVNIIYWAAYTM
UniProt P18508: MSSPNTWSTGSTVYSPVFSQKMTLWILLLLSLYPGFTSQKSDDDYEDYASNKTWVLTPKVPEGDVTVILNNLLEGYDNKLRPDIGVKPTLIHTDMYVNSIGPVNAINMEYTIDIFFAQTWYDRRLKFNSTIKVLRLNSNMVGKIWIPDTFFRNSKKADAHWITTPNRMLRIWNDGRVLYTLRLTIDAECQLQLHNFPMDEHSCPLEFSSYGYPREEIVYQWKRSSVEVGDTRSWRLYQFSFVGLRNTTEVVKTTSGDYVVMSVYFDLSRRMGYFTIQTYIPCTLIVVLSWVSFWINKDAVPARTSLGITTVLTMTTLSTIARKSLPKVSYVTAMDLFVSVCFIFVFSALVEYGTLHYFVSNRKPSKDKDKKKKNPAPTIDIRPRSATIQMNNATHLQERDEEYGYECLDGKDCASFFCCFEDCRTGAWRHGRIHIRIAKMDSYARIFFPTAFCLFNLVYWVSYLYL
UniProt P20236: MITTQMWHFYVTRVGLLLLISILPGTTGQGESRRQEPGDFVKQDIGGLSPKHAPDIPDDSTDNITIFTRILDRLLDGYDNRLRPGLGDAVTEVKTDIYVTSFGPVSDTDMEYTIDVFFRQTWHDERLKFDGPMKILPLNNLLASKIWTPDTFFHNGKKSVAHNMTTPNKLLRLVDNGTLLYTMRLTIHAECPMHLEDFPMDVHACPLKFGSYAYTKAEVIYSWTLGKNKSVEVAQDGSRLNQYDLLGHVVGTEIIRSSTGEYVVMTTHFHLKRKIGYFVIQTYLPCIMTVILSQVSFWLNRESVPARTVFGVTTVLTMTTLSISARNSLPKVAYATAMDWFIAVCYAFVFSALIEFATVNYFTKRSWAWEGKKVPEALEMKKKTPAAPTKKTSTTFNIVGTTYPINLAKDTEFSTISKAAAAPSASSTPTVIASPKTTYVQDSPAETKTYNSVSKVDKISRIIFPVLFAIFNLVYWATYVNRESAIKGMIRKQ
UniProt P23574: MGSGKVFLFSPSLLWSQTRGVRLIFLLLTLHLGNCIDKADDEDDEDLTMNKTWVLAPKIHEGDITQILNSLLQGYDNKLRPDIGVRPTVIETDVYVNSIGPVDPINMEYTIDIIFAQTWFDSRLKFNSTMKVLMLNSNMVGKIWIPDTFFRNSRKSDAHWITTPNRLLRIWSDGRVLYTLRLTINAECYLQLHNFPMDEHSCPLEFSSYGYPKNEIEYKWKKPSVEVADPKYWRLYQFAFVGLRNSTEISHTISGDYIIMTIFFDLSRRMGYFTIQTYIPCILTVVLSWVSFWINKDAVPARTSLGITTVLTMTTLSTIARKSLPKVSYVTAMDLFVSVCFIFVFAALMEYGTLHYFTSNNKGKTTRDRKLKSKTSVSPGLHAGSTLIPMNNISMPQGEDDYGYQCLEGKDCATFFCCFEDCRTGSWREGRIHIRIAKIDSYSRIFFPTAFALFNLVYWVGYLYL
UniProt P23576: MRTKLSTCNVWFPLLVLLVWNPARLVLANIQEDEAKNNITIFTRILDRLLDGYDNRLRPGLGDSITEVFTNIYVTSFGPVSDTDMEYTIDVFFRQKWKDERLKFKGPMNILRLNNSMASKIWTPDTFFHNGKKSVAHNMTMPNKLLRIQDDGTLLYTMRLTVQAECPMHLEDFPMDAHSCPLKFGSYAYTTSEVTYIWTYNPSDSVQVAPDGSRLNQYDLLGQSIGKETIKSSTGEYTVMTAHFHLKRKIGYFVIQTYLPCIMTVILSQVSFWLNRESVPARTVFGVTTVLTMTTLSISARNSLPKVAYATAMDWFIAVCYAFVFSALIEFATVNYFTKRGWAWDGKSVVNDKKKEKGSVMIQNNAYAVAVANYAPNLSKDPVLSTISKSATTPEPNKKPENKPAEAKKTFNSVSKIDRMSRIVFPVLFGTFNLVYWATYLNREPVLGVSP
UniProt P28471: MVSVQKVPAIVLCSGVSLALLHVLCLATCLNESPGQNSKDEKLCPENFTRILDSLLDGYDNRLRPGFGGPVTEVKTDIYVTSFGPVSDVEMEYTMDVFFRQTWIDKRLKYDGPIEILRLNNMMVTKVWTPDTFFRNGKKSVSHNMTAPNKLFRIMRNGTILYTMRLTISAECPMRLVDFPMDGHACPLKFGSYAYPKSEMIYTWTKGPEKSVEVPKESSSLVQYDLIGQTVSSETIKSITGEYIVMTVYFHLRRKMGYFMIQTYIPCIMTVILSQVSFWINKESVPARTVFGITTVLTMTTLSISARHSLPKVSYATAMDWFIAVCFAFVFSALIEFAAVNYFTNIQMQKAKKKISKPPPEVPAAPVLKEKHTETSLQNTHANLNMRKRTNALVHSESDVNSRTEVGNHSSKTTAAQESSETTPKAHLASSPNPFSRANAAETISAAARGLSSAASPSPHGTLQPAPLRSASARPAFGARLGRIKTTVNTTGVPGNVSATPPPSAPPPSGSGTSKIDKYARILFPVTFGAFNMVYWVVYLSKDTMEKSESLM
UniProt P28473: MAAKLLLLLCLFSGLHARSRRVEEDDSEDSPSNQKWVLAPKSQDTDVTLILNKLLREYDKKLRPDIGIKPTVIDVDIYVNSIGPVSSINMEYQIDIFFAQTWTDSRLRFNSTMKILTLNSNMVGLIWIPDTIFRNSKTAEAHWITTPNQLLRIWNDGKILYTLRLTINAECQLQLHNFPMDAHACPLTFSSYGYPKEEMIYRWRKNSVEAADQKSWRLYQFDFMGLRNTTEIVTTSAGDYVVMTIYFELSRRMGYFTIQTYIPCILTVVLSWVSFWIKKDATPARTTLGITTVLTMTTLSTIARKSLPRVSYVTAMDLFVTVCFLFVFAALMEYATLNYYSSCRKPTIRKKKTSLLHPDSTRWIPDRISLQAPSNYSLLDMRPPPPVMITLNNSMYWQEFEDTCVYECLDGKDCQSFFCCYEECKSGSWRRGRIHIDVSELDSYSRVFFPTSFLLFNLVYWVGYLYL
UniProt P30191: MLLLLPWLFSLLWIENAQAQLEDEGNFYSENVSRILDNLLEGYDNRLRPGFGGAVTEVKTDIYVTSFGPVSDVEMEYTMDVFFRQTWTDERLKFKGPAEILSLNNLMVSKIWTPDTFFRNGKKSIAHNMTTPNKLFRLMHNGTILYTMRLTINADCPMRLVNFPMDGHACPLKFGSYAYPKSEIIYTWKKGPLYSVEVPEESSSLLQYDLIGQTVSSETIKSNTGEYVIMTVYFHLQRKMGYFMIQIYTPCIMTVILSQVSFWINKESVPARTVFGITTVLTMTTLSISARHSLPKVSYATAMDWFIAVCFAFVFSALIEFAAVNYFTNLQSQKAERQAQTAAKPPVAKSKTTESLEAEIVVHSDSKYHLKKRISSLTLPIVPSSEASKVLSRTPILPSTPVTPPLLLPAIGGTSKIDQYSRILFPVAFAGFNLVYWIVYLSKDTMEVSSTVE
UniProt P62813: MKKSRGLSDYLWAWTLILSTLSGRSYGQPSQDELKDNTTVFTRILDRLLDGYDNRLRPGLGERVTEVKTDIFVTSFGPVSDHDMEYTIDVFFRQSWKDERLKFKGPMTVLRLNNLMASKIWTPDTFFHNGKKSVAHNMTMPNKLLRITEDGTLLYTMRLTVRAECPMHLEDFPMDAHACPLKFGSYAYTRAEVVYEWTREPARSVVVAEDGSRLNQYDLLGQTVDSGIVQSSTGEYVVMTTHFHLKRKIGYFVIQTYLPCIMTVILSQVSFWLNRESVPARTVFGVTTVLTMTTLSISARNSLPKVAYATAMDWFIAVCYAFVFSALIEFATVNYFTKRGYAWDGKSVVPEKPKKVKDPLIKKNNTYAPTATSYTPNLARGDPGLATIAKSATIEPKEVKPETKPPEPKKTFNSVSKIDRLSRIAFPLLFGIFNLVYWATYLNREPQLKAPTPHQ
UniProt P63138: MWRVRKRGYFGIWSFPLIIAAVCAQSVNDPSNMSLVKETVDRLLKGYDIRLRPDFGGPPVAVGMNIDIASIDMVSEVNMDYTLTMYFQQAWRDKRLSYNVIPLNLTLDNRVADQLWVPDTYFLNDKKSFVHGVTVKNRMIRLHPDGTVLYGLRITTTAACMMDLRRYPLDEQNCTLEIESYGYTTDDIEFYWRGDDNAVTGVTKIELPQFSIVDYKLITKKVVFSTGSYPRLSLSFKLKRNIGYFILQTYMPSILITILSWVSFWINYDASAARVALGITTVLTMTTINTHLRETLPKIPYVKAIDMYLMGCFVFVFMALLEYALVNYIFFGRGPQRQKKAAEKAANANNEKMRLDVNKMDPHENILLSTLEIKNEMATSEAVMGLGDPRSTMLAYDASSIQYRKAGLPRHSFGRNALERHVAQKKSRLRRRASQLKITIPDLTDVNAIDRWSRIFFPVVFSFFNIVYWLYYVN
UniProt Q9ES14: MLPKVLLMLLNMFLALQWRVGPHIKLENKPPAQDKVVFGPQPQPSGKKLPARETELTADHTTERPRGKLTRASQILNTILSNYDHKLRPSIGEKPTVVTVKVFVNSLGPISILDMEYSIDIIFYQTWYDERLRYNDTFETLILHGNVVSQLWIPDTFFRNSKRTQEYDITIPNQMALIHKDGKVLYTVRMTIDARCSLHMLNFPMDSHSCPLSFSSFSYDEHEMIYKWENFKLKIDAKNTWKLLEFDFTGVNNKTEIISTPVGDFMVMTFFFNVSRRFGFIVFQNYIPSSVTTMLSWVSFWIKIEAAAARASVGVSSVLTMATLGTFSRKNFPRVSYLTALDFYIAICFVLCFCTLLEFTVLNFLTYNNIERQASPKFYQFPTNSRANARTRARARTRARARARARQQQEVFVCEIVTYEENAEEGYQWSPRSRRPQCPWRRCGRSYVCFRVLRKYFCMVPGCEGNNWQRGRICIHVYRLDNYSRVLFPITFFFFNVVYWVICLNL

Target: GABA-A receptor; anion channel (Rattus norvegicus) (UniProt O09028+P15431+P18506+P18508+P19969+P20236+P23574+P23576+P28471+P28473+P30191+P62813+P63079+P63138+Q91ZM7+Q9ES14)
Assay: Binding constant was determined by displacing potential to [3H]-diazepam binding in cerebral cortex homogenates of rat
Type: tissue-based
Procedure, shortened: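 Wistar rat cerebral cortex homogenate incubated with compound and 2 nM [3H]diazepam at 0 °C for 60 min. Bound label trapped on glass filters and counted by scintillation. Ki = IC50/(1 + L/Kd).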

Row | SMILES | K2
1 | CN1CCC(N2C(=O)CN=C(c3ccccc3F)c3cc(F)ccc32)CC1 | 0.094 µM
2 | CN1CCC(N2C(=O)CN=C(c3ccccc3)c3ccccc32)CC1 | 2.3 µM
3 | CN1CCC(N2C(=O)CN=C(c3ccccc3)c3cc(Cl)ccc32)CC1 | 0.49 µM
4 | CN1CCC(N2C(=O)CN=C(c3ccccc3F)c3cc(Cl)ccc32)CC1 | 0.042 µM
